Assay results from article PMC8457330 (Journal of medicinal chemistry, 2021).

How the values were obtained:
[1] = tested on: SARS-CoV-2^WK-521; assay: Immunocytochemistry of SARS-CoV-2-exposed VeroE6 cells; conditions: for number of SARS-CoV-2^wk-521-infected cells: immunocytochemistry; for infectivity and cytopathic effect of SARS-CoV-2^WK-521: MOI 0.05, 3 days (Figure 2)
[2] = tested on: SARS-CoV-2^WK-521; conditions: VeroE6 cells, tested at 1, 10 and 100 μM; cited from earlier work

Row | Compound | number of SARS-CoV-2^wk-521-infected cells ([1]; 10 μM compound) | number of SARS-CoV-2^wk-521-infected cells ([1]; 100 μM compound) | infectivity and cytopathic effect of SARS-CoV-2^WK-521 [1] | infectivity and cytopathic effect of SARS-CoV-2^wk-521 [2]
1 | O=C(Oc1cncc(Cl)c1)c1cccc2[nH]ccc12 [Compound 1, 5-chloropyridin-3-yl 1H-indole-4-carboxylate] | significant reduction | essentially no infected cells | potently blocked the infectivity and cytopathic effect | completely blocked the infectivity and cytopathic effect
2 | CCC(CC)COC(=O)[C@H](C)N[P@](=O)(OC[C@H]1O[C@@](C#N)(c2ccc3c(N)ncnn23)[C@H](O)[C@@H]1O)Oc1ccccc1 [Remdesivir, reference compound] |  | significantly reduced the number of infected cells | potently blocked the infectivity and cytopathic effect | completely blocked the infectivity and cytopathic effect
3 | O=C(Oc1cncc(Cl)c1)c1cccc2c1CCN2 [Compound 2, 5-chloropyridin-3-yl indoline-4-carboxylate] | significant reduction | essentially no infected cells | potently blocked the infectivity and cytopathic effect | 
